Test results published in patent publication US9895439B2, “Combined treatment with netrin-1 interfering drug and chemotherapeutic drug” (NETRIS PHARMA, priority 2012, dated 2018).

Test system: Netrin-1 (NTN1) expression in panel of 15 cancer cell lines
Conditions: drug at IC10, IC30, IC50 or ICMAX, 24 hours

SMILES | cancer cell lines with significant (>2 fold over control) increase of netrin-1 [%]
O=c1[nH]cc(F)c(=O)[nH]1 [5FU, 5-Fluorouracil] | 36
N.N.[Cl][Pt][Cl] [Cisplatin] | 21
COc1cccc2c1C(=O)c1c(O)c3c(c(O)c1C2=O)C[C@@](O)(C(=O)CO)C[C@@H]3O[C@H]1C[C@H](N)[C@H](O)[C@H](C)O1 [Doxorubicin] | 60
CC(=O)O[C@H]1C(=O)[C@@]2(C)[C@H]([C@H](OC(=O)c3ccccc3)[C@]3(O)C[C@H](OC(=O)[C@H](O)[C@@H](NC(=O)c4ccccc4)c4ccccc4)C(C)=C1C3(C)C)[C@]1(OC(C)=O)CO[C@@H]1C[C@@H]2O [Taxol, paclitaxel] | 20
